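Cultured in 96-well plates, cells were exposed to test compound for 48 hours across five concentrations. The concentration for 50% growth inhibition is given as GI50. TGI marks complete inhibition of growth.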
System: MDA-MB-468 breast
Assay: inhibition of tumour cell growth, NCI panel, 48 h

For `O=[N+]([O-])c1ccc(Nc2ccc(Oc3ccc([N+](=O)[O-])cc3[N+](=O)[O-])cc2)c([N+](=O)[O-])c1`, the GI50 was 11.6 µM and the TGI was 69.7 µM.

From PubChem BioAssay (NCI)
